Like-named read-outs stand apart in the source and are kept apart here.
B1: compound 35, NPEG4-(IETDV)2 fused to L-Arg9 (Ac-RRRRRRRRR-) (peptide)
peptide: IETDV
chain: RRRRRRRRR
modifications: N-terminal acetyl (Ac); C-terminus linked to the nitrogen of the NPEG4 linker; N-terminus joined to the NPEG4 linker that bridges the two copies
notes: Branched compound CPP-NPEG4-(P1)(P2), formula (XXVIII); also called formula (XXIII)
B2: compound 46, NPEG4-(IETDV)2 fused to L-Pen (Ac-RQIKIWFQNRRMKWKK-) (peptide)
peptide: IETDV
chain: RQIKIWFQNRRMKWKK
modifications: N-terminal acetyl (Ac); C-terminus linked to the nitrogen of the NPEG4 linker; N-terminus joined to the NPEG4 linker that bridges the two copies
notes: Branched compound CPP-NPEG4-(P1)(P2), formula (XXVIII)

The chains behind the UniProt entries cited, without tags or fusion partners. Residues count along the entry.
UniProt P78352, 61-249 limits assumed: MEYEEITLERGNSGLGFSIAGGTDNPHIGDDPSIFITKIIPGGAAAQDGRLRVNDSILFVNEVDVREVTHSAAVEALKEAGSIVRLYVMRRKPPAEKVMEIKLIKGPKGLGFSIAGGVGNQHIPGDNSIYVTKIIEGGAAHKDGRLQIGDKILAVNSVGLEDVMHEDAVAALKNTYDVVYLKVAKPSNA

Assays:
[1] = biological target: T1, PDZ1-2 of PSD-95 (postsynaptic density protein-95) (UniProt P78352 61-249, limits assumed); assay: FP competition against fluorescent dimeric probe, Ki from IC50
T1 construct: domain: PDZ1-2; also called PSD-95 PDZ1-2; PSD-95 PDZ12

[2] = biological target: T1, PDZ1-2 of PSD-95 (postsynaptic density …); assay: as above; remark: listed apart in the source

| Binder | Ki [1] | Ki [2] |
| --- | --- | --- |
| B1 | 16 nM | 11 nM |
| B2 |  | 11.3 nM |

From patent US20240245793A1 (UNIVERSITY OF COPENHAGEN, published 2024)
